Measured affinities in a library of Ab-14 light chain variants

From the AlphaSeq antibody data of Engelhart et al. 2022 (doi:10.1038/s41597-022-01779-4), copy in the FLAb collection.

Antigen: PDVDLGDISGINAS, a 14-residue peptide of the SARS-CoV-2 spike HR2 region.

Parent scFv Ab-14: VH joined to VL by a (GGGGS)3 linker. Changes lie in the light chain CDRs alone.
VH: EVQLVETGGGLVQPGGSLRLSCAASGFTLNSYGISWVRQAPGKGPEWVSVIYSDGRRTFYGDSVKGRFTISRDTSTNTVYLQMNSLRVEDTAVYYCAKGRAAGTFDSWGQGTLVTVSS
VL: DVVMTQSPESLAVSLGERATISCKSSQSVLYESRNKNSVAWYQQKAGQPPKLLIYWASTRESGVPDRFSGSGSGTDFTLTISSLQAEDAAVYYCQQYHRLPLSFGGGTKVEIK

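The parent was found by panning a naive human phage display library on the peptide. AAYL50 was designed without a model: most single CDR substitutions and a random sample of double and triple ones. Affinity was read by AlphaSeq, a pooled yeast mating assay with surface-displayed partners. Binding brings cells together so that they mate, and sequencing counts the barcode pairs among the diploids. Read counts were normalised to the haploid input and turned into Kd by a linear fit to BCL2-family pairs of known affinity, for each replicate. The assay was run in three technical replicates.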

Each variant is given by its three light chain CDRs, as the data file delimits them; those of the parent are KSSQSVLYESRNKNSVA, WASTRES, QQYHRLPLS. Affinities are written as log10 Kd with Kd in nM; a lower number is a better binder. Averages over replicates are reported, and they cover detected replicates only. "ND" marks a missing value. The strain was present, yet no cells mated with the target were sequenced in that replicate, which points to weak or no binding. Three control strains display no target. For library AAYL50, 18% of the pairings with them gave a signal, with a median of 4.19 and one signal in twenty below 2.99, so weak values seen in few replicates may be background. Also given: how often the same scFv was detected with the empty control strains, with their mean in brackets. For reference, the parent read 0.65 as the reference entry and 1.68 as a member of this library.

CDR-L1	CDR-L2	CDR-L3	log10 Kd (nM) by replicate	mean log10 Kd (nM)	control signals
KSSQSVLYESRNKNSYA	WISTRES	QQYHKLPLS	ND / ND / ND	ND	0/9
KSSQSVLYHSRNKFSVA	WASTRES	QQYHGLPLS	4.18 / 2.41 / 4.06	3.55	3/9 (3.59)
KSSQSVSYESRNKNSVA	WHSYRES	QQYHRLPLS	ND / ND / ND	ND	2/9 (4.03)
KSSQVVLYESRNKNSVA	WASVRES	QQYHRLPLS	1.53 / 1.01 / 1.67	1.40	0/9
KSSQTDLYESRNKNSVA	WASTRES	QQYHRLNLS	ND / ND / ND	ND	0/9
KSSQSVLHESRNKNSVA	WASTRES	QQYHRLPIT	2.00 / 1.86 / 1.92	1.93	1/9 (3.53)
KSSQSVLYESRNKNLVI	WASTRES	QQYHRPPLS	ND / ND / ND	ND	1/9 (3.71)
KSSQSRLYESLNKYSVA	WASTRES	QQYHRLPLS	0.82 / 0.74 / 1.55	1.04	0/9
MSSQSVLYESRNKNNVA	WAWTRES	QQYHRLPLS	3.13 / ND / ND	3.13	1/9 (4.54)
KWSQRVLYESRNKNSVA	WASTRES	QQYHRLPLW	ND / ND / 4.41	4.41	0/9
KSSQSVLYFSRNKNSVA	WASTFES	QQYHRKPLS	3.83 / ND / ND	3.83	3/9 (4.52)
KSSQSALYESRNKNSVN	WASTRPS	QQYHRLPLS	ND / ND / ND	ND	4/9 (3.55)
KSSQSVLYESRNKNSVA	PASTRES	QQYHRLPVS	ND / ND / ND	ND	2/9 (3.21)
KSSQEVLYESRNKNFVA	WASTRES	QQYHTLPLS	2.61 / 2.18 / 3.21	2.67	1/9 (4.74)
RSSQSVLYESRNKNSVA	WGSTRES	QCYHRLPLS	ND / ND / 2.13	2.13	0/9
KDSQSVLYESRNKNSVA	WAWWRES	QQYHRLPLS	ND / ND / ND	ND	0/9
FSCQSVLYESRNKNSVA	WASTRES	QQYHRLPLS	2.91 / 3.81 / 3.13	3.28	1/9 (3.52)
KNEQSVLYESRNKNSVA	WASTRGS	QQYHRLPLS	1.90 / 1.91 / 1.92	1.91	1/9 (3.55)
KSSQSVLYESKNKNLVA	CASTRES	QQYHRLPLS	ND / ND / 3.70	3.70	0/9
KSSQSVLYEERMKNSVA	WASTRES	QQYPRLPLS	1.18 / 1.41 / 1.30	1.30	3/9 (4.42)
KSSQMVLYESRNKNSVA	WASTFRS	QQYHRLPLS	2.43 / ND / ND	2.43	0/9
KSPQSVEYESRNKNDVA	WASTRES	QQYHRLPLS	2.32 / 2.16 / 2.29	2.26	0/9
KASQSVLSESRNKNSVH	WASTRES	QQYHRLPLS	ND / ND / ND	ND	1/9 (3.93)
ISSQSVLYESRNKNSVA	WASTRES	QFYHRLPYS	ND / ND / ND	ND	0/9
DSSQSVLYESRNKNSVA	TASTRES	QQYKRLPLS	1.96 / 1.87 / 2.13	1.99	2/9 (4.78)
KSSQSNLYESRNKNSVA	WASSRES	RQYHRLPLS	ND / ND / ND	ND	0/9
KPSQSVLYESFNKNSVA	WASTRES	QFYHRLPLS	3.79 / ND / ND	3.79	0/9
KSSQSVHYESRNKLSVA	WASTRES	QQYHRLPLS	4.85 / 4.56 / 4.76	4.72	1/9 (4.21)
MSSQSKLYESRNKNSVA	WASTRES	QQSHRLPLS	3.72 / ND / ND	3.72	0/9
KSSQSVLYESRNKNSVA	WASTEEQ	WQYHRLPLS	3.63 / 3.45 / 4.35	3.81	1/9 (5.13)
KSGQSQLYESRNKNSVA	WASTREG	QQYHRLPLS	2.87 / 2.15 / 2.42	2.48	2/9 (4.22)
KNSQSVLYESRNKNSVA	WASTAES	QQYHRLPLS	ND / ND / ND	ND	4/9 (3.64)
KSWQSVLYESRNKNSVA	WASTRES	QQYHRTKLS	5.59 / 3.83 / 5.95	5.12	5/9 (4.62)
KSSQSVPYESMNKNSVA	WASTRES	QQYHRLPLS	0.68 / 0.78 / 0.72	0.72	4/9 (4.58)
KSSQSVLAESRNKNSVA	WASTRES	PQKHRLPLS	ND / 4.10 / ND	4.10	1/9 (4.59)
KSSQSVLYMSRNKNSVA	WASTRES	QQYYRLPNS	ND / ND / ND	ND	0/9
KSSQSVLYESRNKNSVE	WASTRES	AQFHRLPLS	ND / ND / ND	ND	2/9 (3.62)
KSSQSVLYENRNKNSVA	WYSTRES	QQYHRLPVS	ND / ND / ND	ND	0/9
KSSQSVLYMSRNKNSQA	WASTRES	QQYHSLPLS	ND / ND / ND	ND	0/9
KSVQSVLYESRNKNSVT	WASTRES	QQGHRLPLS	4.45 / ND / ND	4.45	3/9 (4.22)
KSSQSVLYESWNKNSGA	SASTRES	QQYHRLPLS	ND / ND / ND	ND	1/9 (3.42)
KSSQQVLYESRNKNSVA	WASTRES	QQYHREVLS	ND / ND / ND	ND	0/9
KSSQSVLYESRNKNSCA	WASTHES	QPYHRLPLS	ND / ND / ND	ND	1/9 (3.47)
KSSQSVLYLSRNKNSVA	WASKRES	QQAHRLPLS	ND / ND / ND	ND	0/9
VSSFSVLYESRNKNSVA	WASTRES	QQYGRLPLS	1.56 / 1.47 / 1.97	1.67	3/9 (3.62)
KSSQSVLYESRNKNSVA	WASTRES	QQYHRLSLS	1.64 / 1.51 / 1.59	1.58	1/9 (3.95)
KSSQSVLYESRNKNSVA	TWSNRES	QQYHRLPLS	ND / ND / ND	ND	0/9
KSSQLKLYESRNKNSVA	WASTQES	QQYHRLPLS	ND / ND / ND	ND	0/9
KSSQMVYYESRNKNSVA	WASTRES	QQYHRVPLS	1.44 / 1.32 / 1.28	1.35	0/9
KSSQSCLYESRNKNSVA	WASTRQS	QQYHRLPLS	0.92 / 1.34 / 1.22	1.16	1/9 (3.68)
KSYQSVLYESRNKNSVA	WASGRES	QQYHRLYLS	ND / ND / ND	ND	0/9